Some results are limits rather than exact numbers.

Chains of the proteins cited; added tags and fusions are not shown. Residues count along the entry.
UniProt Q96P20, 134-1036 limits assumed: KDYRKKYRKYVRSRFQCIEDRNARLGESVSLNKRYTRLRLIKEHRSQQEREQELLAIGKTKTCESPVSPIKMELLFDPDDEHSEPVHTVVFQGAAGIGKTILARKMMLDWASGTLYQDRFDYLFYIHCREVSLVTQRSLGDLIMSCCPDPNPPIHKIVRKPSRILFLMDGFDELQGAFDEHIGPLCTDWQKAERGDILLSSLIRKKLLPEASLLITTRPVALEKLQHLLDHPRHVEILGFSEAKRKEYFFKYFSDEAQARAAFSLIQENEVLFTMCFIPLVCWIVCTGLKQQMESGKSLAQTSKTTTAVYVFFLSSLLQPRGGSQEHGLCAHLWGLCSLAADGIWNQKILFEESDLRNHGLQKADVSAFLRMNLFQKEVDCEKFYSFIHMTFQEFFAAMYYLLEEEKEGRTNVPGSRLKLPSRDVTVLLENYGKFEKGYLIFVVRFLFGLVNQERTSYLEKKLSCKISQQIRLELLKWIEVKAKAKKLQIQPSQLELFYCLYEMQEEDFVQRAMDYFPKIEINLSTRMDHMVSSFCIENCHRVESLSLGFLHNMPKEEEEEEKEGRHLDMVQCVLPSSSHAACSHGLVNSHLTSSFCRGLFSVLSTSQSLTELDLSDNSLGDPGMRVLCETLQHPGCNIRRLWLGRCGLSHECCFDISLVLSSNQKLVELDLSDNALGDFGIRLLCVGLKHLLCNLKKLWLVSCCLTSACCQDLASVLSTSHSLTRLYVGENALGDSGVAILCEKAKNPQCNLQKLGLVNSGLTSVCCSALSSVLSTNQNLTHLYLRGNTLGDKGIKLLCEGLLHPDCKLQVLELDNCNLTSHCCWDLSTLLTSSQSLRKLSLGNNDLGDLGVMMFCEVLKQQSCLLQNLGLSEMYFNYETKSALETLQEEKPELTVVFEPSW

In the experiment the target is His6-Flag-TEV-NLRP3 (134-1036) (Homo sapiens, UniProt Q96P20). Kind of experiment: NLRP3 binding assay (fluorescence polarization, competition with probe NP3-301). The settings on record: read-out: FP Binding Assay IC50; competition with NP3-301 (0.5 nM) for binding to NLRP3 protein (30 nM). Here is the method:
This experiment uses fluorescence polarization technology to detect and evaluate the binding assay.
The fluorescent probe used in this assay is the compound NP3-301 in the Journal of Molecular Biology (2021) 433, 167309, which was synthesized with reference to this literature.
His6-Flag-TEV-NLRP3 (134-1036) protein (SEQ NO.1) was purchased from Kaihuiruizhi Biotech (Shanghai) Co., Ltd. (ChemPartner), and was customed for expression.
Prepare 1× assay buffer: 50 mM Hepes, pH 7.4, 150 mM NaCl, 2.5 mM MgCl2, 0.005% Tween-20, 1 mM TCEP, 100 µM ATP.
First, 2.5 µL of 4× compound solution was added to a black shallow 384-well plate (Greiner, 784076), the shallow well plate was sealed, and centrifuged at 1000 rpm for 1 min; then 2× NLPR3 protein solution (final concentration of 30 nM) was added, the shallow well plate was sealed, centrifuged at 1000 rpm for 1 min, and incubated at room temperature for 60 min. Finally, 2.5 µL of 4× NP3-301 (final concentration of 0.5 nM) was added, the shallow well plate was sealed, centrifuged at 1000 rpm for 1 min, and incubated at room temperature for 30 min. Envision was used to read the fluorescence polarization values of λex = 485 ± 20 nm and λem = 535 ± 25 nm. […]

Consider `Cc1cc(C(F)(F)F)cc(O)c1-c1ccc2oc(NC[C@H]3COCCO3)nc2n1`, for which the IC50 is less than 100 nM. As for `Cc1cc(C(F)(F)F)cc(O)c1-c1ncc2cn(C3CCOCC3)nc2n1`, the IC50 was 100 to 500 nM.

The values above are taken from patent publication EP4667468A1, “COMPOUND FOR INHIBITING NLRP3, PREPARATION METHOD, AND USE” (Shenzhen Zhongge Biological Technology Co., Ltd., priority 2023, dated 2024).
